Source: patent US20230020342A1, “METHOD FOR PRODUCING POLYOL-BASED ESTERS, IN PARTICULAR POLYGLYCEROL ESTERS, FROM HYDROXY CARBOXYLIC ACIDS” (IOI Oleo GmbH, priority 2019, published 2023)

Test system: pancreatin (Panzytrat 40,000)
Assay: Cleavage experiments with pancreatin in water, followed by acid number
Details: individual esters in pure form, 50° C.
Description: The pancreatin is used in the form of the commercially available product Panzytrat® 40,000 from the Allergan company. The whole mixture is stirred on a hot plate at 50° C.; the course of the reaction is determined and monitored by continuously recording the acid number over time.

Substance: 3-hydroxybutyric acid tetra-diglycerol ester
- cleavage by pancreatin to free 3-hydroxybutyric acid (3-BHB-FS): cleaved by pancreatin to the free 3-hydroxybutyric acid
